Measured values from PubChem BioAssay AID493012 (Sanford-Burnham Center for Chemical Genomics, 2011).
The entries are a selection whose mix differs from that of the whole data set. Calls of active or inactive are those of the source.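 The calls were made as follows: active = inhibition of at least 40% at 20 µM, with no more than 30% in the related APOBEC3A deaminase screen; inactive = the rest.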

By UniProt entry, the sequences of proteins in these tests, tags left out.
UniProt Q9HC16, whole entry: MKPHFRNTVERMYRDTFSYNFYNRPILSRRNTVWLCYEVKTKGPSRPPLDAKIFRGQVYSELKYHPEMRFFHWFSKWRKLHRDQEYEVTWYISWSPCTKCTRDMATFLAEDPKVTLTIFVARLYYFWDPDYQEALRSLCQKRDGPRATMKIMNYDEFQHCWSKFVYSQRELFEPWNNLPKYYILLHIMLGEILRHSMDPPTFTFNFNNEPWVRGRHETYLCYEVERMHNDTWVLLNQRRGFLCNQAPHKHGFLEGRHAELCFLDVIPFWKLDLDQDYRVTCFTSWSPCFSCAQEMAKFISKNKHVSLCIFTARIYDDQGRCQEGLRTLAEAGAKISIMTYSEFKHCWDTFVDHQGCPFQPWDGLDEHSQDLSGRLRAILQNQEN

biological target: DNA dC->dU-editing enzyme APOBEC-3G (Homo sapiens) (UniProt Q9HC16); assay: APOBEC3G DNA deaminase inhibitors, primary screen, biochemical, fluorescence, single-stranded DNA substrate, uHTS (AID 493012); conditions: recombinant A3G, ssDNA deamination FAM/TAMRA fluorescence; at 20 µM; hits give high values;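 also: plate controls were DMSO wells with A3G for no effect and wells lacking A3G enzyme for full effect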

| SMILES | inhibition |
| --- | --- |
| CC(C)(C)OC(=O)N1CCC(N(C(=O)c2ccccc2)c2ccc(F)cc2)CC1 | inactive: -8.8% |
| COc1ccc(C(=O)NCC2(N3CCCCC3)CCCCC2)cc1 | inactive: -3.94% |
| CCOC(=O)N1CCC(Nc2ccc(OC)cc2)CC1 | inactive: -11.4% |
| COc1ccc(Cl)cc1C(=O)NCC1(N2CCOCC2)CCCCC1 | inactive: -2.25% |
| O=C(NCC1(N2CCCCC2)CCCCC1)c1ccc(Cl)s1 | inactive: -3.85% |
| N#CC1(Nc2ccccc2)CCN(Cc2ccccc2)CC1 | inactive: -7.66% |
| O=C(OC1CN2CCC1CC2)C1c2ccccc2Oc2ccccc21 (stereo not drawn) | inactive: -8.53% |
| O=C(NCC1(N2CCOCC2)CCCCC1)c1cc2ccccc2o1 | inactive: -5.17% |
| Cc1cc(C)cc(N(C(=O)c2ccccc2)C2CCN(C(=O)OC(C)(C)C)CC2)c1 | inactive: -0.949% |
| O=C(NCC1(N2CCCCC2)CCCCC1)c1ccc(Cl)nc1 | inactive: 6.46% |
| CCCOc1ccc(C(=O)NCC2(N(C)C)CCCCC2)cc1 | inactive: -0.045% |
| O=C(O)C1(Nc2ccccc2)CCN(Cc2ccccc2)CC1 | inactive: -7.19% |
| CC(C)(C)OC(=O)N1CCC(Nc2ccccc2)CC1 | inactive: -7.17% |
| CN1CCC(Nc2ccc(F)c(Cl)c2)CC1 | inactive: -1.6% |
| CCOc1ncccc1C(=O)NCC1(N2CCOCC2)CCCCC1 | inactive: -0.965% |
| CCCOc1ccc(C)cc1CN(CCCl)CCCl | inactive: -5.41% |
| CN1CCC(Nc2ccc(Cl)cc2)CC1 | inactive: -7.28% |
| CCC(CO)(C(=O)OC1CN2CCC1CC2)c1ccccc1 (stereo not drawn) | inactive: 1.78% |
| COc1cccc(C(=O)N(c2cc(C)cc(C)c2)C2CCN(C(=O)OC(C)(C)C)CC2)c1 | inactive: -1.04% |

| SMILES | inhibition |
| --- | --- |
| COc1cc(OC)cc(C(=O)NCC2(N3CCOCC3)CCCCC2)c1 | inactive: -7.74% |
| Fc1ccccc1NC1CCN(Cc2ccccc2)CC1 | inactive: -4.67% |
| Cc1ccc(C(=O)NCC2(N3CCCCC3)CCCCC2)o1 | inactive: -2.31% |
| COc1cc(OC)cc(C(=O)NCC2(N3CCCCC3)CCCCC2)c1 | inactive: 2.08% |
| CN(C)c1ccc(C(=O)NCC2(N3CCCCC3)CCCCC2)cc1 | inactive: -5.97% |
| O=C(NCC1(N2CCCCC2)CCCCC1)c1ccco1 | inactive: -8.06% |
| CCN1CCC(Nc2cccc(F)c2)CC1 | inactive: -2.63% |
| CC(C)(C)OC(=O)N1CCC(N(C(=O)c2ccccc2)c2ccc(Cl)cc2)CC1 | inactive: -8.16% |
| N#Cc1ccc(C(=O)NCC2(N3CCCCC3)CCCCC2)cc1 | inactive: -1.69% |
| CCCN1CCC(Nc2cc(OC)cc(OC)c2)CC1 | inactive: -0.318% |
| c1ccc(CN2CCC(Nc3ccccc3)CC2)cc1 | inactive: -2.06% |
| CN(C)C1(CNC(=O)c2cccc(C#N)c2)CCCCC1 | inactive: -1.96% |
| COc1ccc(C(=O)NCC2(N3CCOCC3)CCCCC2)cc1OC | inactive: -5.85% |
| O=C(NCC1(N2CCOCC2)CCCCC1)c1cc(Br)ccc1Cl | inactive: -8.09% |
| COc1cc(C(=O)NCC2(N3CCOCC3)CCCCC2)cc(OC)c1C | inactive: -1.16% |
| CCc1cc(C(=O)NCC2(N3CCCCC3)CCCCC2)sc1C | inactive: -9.42% |
| O=C(OC1CN2CCC1CC2)C1c2ccccc2C=Cc2ccccc21 (stereo not drawn) | inactive: -3.95% |
| N/C(=N\O)c1c(N)no[n+]1[O-] | inactive: 12.8% |
| CCOC(=O)N1CCC(Nc2ccc(C)cc2)CC1 | inactive: -8.39% |
